Experimental data reported in PubChem BioAssay AID1952 (The Scripps Research Institute Molecular Screening Center, 2009).
Only a part is listed here, and it is no random draw. The source made the active and inactive calls. No stated cut-off is given here; in the data, active means inhibition above about 24%; inactive means the rest.

The chains behind the UniProt entries cited, without tags or fusion partners. Where a name states a change or a piece, a line headed by the entry shows the natural chain unless it says otherwise.
UniProt P48145: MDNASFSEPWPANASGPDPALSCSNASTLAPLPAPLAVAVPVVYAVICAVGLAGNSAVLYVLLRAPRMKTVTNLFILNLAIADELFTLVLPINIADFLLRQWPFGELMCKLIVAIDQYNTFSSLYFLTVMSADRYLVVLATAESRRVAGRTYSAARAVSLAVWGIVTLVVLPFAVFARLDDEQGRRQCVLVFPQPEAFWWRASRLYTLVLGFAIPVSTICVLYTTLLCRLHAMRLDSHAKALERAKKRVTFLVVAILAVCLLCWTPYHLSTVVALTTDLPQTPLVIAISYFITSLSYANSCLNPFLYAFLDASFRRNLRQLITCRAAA

target: Neuropeptides B/W receptor type 1 (Homo sapiens) (UniProt P48145); assay: GPR7 receptor antagonists, confirmation, cell-based, fluorescence, single concentration (AID 1952); conditions: GPR7-expressing cells, calcium fluorescence antagonist mode; at 4.4 µM; hits give high values;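 further: stimulated with the GPR7 agonist NPW; 0% = agonist plus vehicle and 100% = vehicle alone without agonist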

| Compound | inhibition |
| --- | --- |
| O=c1c2cc([N+](=O)[O-])ccc2[nH]c2c([N+](=O)[O-])cc([N+](=O)[O-])cc12 | active: 72.8% |
| COc1ccccc1OP(=O)(Nc1ccc(C)cn1)Oc1ccccc1OC | inactive: -8.08% |
